According to US20040265808A1, “Genes involved in osteogenesis, and methods of use” (priority 2001, published 2004):

Test system: C2C12, C3H10T1/2, ST2 and MC3T3-E1 cells
Test: Changes in relative gene expression after BMP2 treatment (Affymetrix GeneChips)
Type: cell-based, mouse
Description: FIG. 10 represents the effect of BMP2 on the expression of Gas6 and Ufo/Ax1 in pluripotential mensenchymal cell lines C3H10T1/2 and C2C1/2 cells and the osteoblast-like cells MC3T3-E1 were cultured in the presence or absence of 100 ng of recombinant BMP2 for 4 (4d) or 3 (3d) days. Total RNAs were extracted at using the RNAplus kit provided by Quantum. Changes in relative gene expression were assessed by using GeneChips (Affymetrix). Results are expressed in ratios using the untreated cells values as denominators, significant changes in expression (pval<0.1 and ratios>1.5x) are indicated with **.
Mouse cell lines representing different stages of osteoblastic differentiation, C2C12, C2H10T1/2, ST2 and MC3T3-E1, were grown in the presence of agents capable of the induction of osteoblastic differentiation in vitro such as BMP2 and Sonic Hedgehog or in the presence of TGF beta (negative control) or with serum alone. Primary cells derived from mouse calvaria were also cultured for 0, 2, 7 14 and 21 days and RNA prepared for each time point. For example, C3H10T ½ and C2C12 can be obtained from the ATCC (Manassas, Va., USA) under the collection numbers CCL-226 and CRL-1772, respectively.
Cell extracts for RNA preparation were collected at different time points by using the RNAplus kit provided by Quantum. For every resulting sample, labeled cDNA probe was then generated by reverse transcription followed by in vitro transcription incorporating biotin as part of the standard Affymetrix protocol.
The probes were hybridized in duplicate to the complete series of Affymetrix 35K mouse chips (Mu19KsubA, Mu19KsubB, Mu19KsubC, Mu11KsubA, Mu11KsubB and the chips scanned by laser after hybridization and staining. The final data set consisted in of a total of 580 scan files, each obtained using the GeneChip software, which for each qualifier in the file assigns an intensity which is a measure of the corresponding transcript abundance. The output files were further processed into a format which for each intensity adds an estimate of the standard deviation of the noise (Teilhaber et al, 2000, J. Comp. Biol).

B1: BMP-2: recombinant BMP2, agent capable of the induction of osteoblastic differentiation in vitro (protein, UniProt P12643 283-396, looked up)
Bone morphogenetic protein 2: QAKHKQRKRLKSSCKRHPLYVDFSDVGWNDWIVAPPGYHAFYCHGECPFPLADHLNSTNHAIVQTLVNSVNSKIPKACCVPTELSAISMLYLDENEKVVLKNYQDMVVEGCGCR
Ufo/Ax1 expression (C2C12, C3H10T1/2, ST2 and MC3T3-E1 cells): repressed | expression of CTGF (C2C12, C3H10T1/2, ST-2 and MC3T3-E1 cells): strongly induces | NOV gene expression (C2C12, C3H10T 1/2 and MC3T3-E1 cells): dramatic decrease | Gas6 expression (C2C12, ST2 and MC3T3-E1): significantly upregulated | EphB3 receptor gene expression (C2C12 and C31410T1/2): up-regulated | LRP1 expression (C3H10T1/2, ST-2 and MC3T3-E1 cells): down-regulated | LDLR expression (ST-2 and C3H10T1/2 cells): up-regulated
